SMILES strings stand for the structures. In brackets after ≈: the same amount, converted by molar mass.

This passage reports IC50, HI and HD50 results from ChEMBL document CHEMBL1148528, “Multivalent antimicrobial peptides from a reactive polymer scaffold” (J Med Chem, 2006).

In experiment [1] the test system is Escherichia coli. The experiment in a line: Antibacterial activity against Escherichia coli ATCC 25922. Type of experiment: functional, organism-based.
Experiment [2] relates to RBCs. Briefly: Hemolytic index, HD50 in sheep red blood cell/IC50 against Escherichia coli. Type of experiment: functional, Erythrocyte.
The test system of experiment [3] is Bacillus subtilis. Briefly: Antibacterial activity against Bacillus subtilis ATCC 6633. The class given is functional, organism-based.
The subject of experiment [4] is RBCs. The experiment in a line: Hemolysis in sheep RBC. Type of experiment: functional, Ovis aries, Erythrocyte. In outline:
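Fresh red blood cells were exposed to compound. HD50 is the concentration producing 50% hemolysis, in µg/mL. Mean of three independent experiments, each performed in parallel.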

In experiment [5] the test system is RBCs. The experiment in a line: Hemolytic index, HD50 in sheep red blood cell/IC50 against Bacillus subtilis. The class given is functional, Erythrocyte.

As a reminder, the IC50 is the midpoint of a concentration-inhibition curve. Higher therefore signals weaker potency in that assay. `CC(=O)N[C@@H](CCCN=C(N)N)C(=O)N[C@@H](Cc1c[nH]c2ccccc12)C(=O)N[C@@H](CCCN=C(N)N)C(=O)N[C@@H](Cc1c[nH]c2ccccc12)C(N)=O`: the figures for the half-maximal inhibitory concentration (IC50) in experiment [1] and in experiment [3] were 510 µg/mL (≈ 686 µM) and 142 µg/mL (≈ 191 µM), respectively. In addition, the values for the HI in experiment [2] and in experiment [5] were 3.6 and 13, respectively. This compound also returned an HD50 in experiment [4] of 1850 µg/mL.
For `CC(=O)N[C@@H](CCCN=C(N)N)C(=O)N[C@@H](CCCN=C(N)N)C(=O)N[C@@H](Cc1c[nH]c2ccccc12)C(=O)N[C@@H](Cc1c[nH]c2ccccc12)C(N)=O` the same measures were 586 µg/mL (≈ 788 µM), 131 µg/mL (≈ 176 µM), 3.9, 17.4 and 2280 µg/mL.
